This is an account of results in US20230295259A1 (Protagonist Therapeutics, Inc., priority 2020, published 2023).

Read-outs that look alike come from different tables or passages of the source.

Data set [1] in a line: Stability in simulated gastric fluid (SGF with pepsin, pH 1.2). In kind it is in vitro ADME. As for the experimental part: Blank SGF was prepared by adding 2 g sodium chloride, 7 mL hydrochloric acid (37%) in a final volume of 1 L water, and adjusted pH to 1.2.
SGF was prepared by dissolving 320 mg Pepsin (Sigma®, P6887, from Porcine Stomach Mucosa) in 100 mL Blank SGF and stirred at room temperature for 30 minutes. The solution was filtered through 0.45 μm membrane and aliquot and stored at −20° C.
(§1) Experimental compounds of interest (at a concentration of 20 μM) were incubated with pre-warmed SGF at 37° C. Aliquots were taken at various time points up to 24 hours (e.g., 0, 0.25, 1, 3, 6 and 24 hr), and immediately quenched with 4 volumes of organic solvent (acetonitrile/methanol (1:1) and 0.1% formic acid, containing 1 μM internal standard). Quenched samples were stored at 4° C. until the end of the experiment and centrifuged at 4,000 rpm for 10 minutes. The supernatant were diluted 1:1 with deionized water and analyzed using LC-MS. Percentage remaining at each time point was calculated based on the peak area ratio (analyte over internal standard) relative to the initial level at time zero. Half-lives were calculated by fitting to a first-order exponential decay equation using GraphPad.

Data set [2] is described as follows: Stability in simulated intestinal fluid (FaSSIF with 1% pancreatin). The class given is in vitro ADME. As for the experimental part: FaSSIF was prepared by dissolving 1.2 g porcine pancreatin (Chem-supply, PL378) in 100 mL Blank FaSSIF and stirred at room temperature for 30 minutes. The solution was filtered through 0.45 μm membrane and aliquot and stored at −20° C.
as §1, with “interest (20” for “interest (at a concentration of 20”, “pre-warmed FaSSIF (1% pancreatin in final incubation mixture)” for “pre-warmed SGF”, “hours (e.g.” for “hours (e.g.,”, “supernatant was” for “supernatant were”
Compounds of interest (at concentration of 20 μM) were mixed with pre-warmed FaSSIF (1% pancreatin in final working solution). The solution mixture was aliquoted and incubated at 37° C. The number of aliquots required was equivalent to the number of time points (e.g. 0, 0.25, 1, 3, 6 and 24 hr). At each time point, one aliquot was taken and immediately quenched with 4 volumes of organic solvent (acetonitrile/methanol (1:1) and 0.1% formic acid, containing 1 μM internal standard). The remaining steps were the same as the generic experimental.

Data set [3] has as its target T1, ferroportin (endogenously expressed in T47D cells) (Homo sapiens, UniProt Q9NP59).
T1 construct: is a human breast carcinoma adherent cell line which endogenously expresses ferroportin; host or cells: T47D
T1 sequence (Q9NP59 1-571): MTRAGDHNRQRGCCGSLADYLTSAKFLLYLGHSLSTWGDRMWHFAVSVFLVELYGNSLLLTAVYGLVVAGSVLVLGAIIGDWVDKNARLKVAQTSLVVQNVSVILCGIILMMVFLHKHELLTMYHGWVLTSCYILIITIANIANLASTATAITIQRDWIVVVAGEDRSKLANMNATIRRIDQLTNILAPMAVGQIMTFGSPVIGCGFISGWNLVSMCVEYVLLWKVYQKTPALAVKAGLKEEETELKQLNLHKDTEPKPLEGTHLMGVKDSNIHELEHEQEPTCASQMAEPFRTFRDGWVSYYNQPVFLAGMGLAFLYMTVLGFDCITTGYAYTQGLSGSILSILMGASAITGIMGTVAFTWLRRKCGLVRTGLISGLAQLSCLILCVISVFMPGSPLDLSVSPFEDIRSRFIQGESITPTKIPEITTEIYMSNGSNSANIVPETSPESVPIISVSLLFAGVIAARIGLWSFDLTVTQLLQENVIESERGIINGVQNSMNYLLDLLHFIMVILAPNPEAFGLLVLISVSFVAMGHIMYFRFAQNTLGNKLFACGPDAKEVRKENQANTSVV
The data set is described as follows: T47D cell-based ferroportin internalization assay in presence of 0.5% mouse serum albumin (AF647-conjugated detection peptide, flow cytometry). For orientation: A flow cytometer gives signals particle by particle.

A further data set deals with T2, human ferroportin (Homo sapiens, UniProt Q9NP59).
T2 construct: expressed in transfected cells
T2 sequence (Q9NP59 1-571): T1 sequence (Q9NP59 1-571)
The data set is described as follows: FPN activity assay: internalization/degradation of ferroportin-GFP in stably transfected HEK293 cells (decrease in GFP fluorescence). The class given is cell-based. How it is done: Following internalization, the ferroportin protein is degraded.
A retro inverse peptide is a peptide with a reversed sequence in all D amino acids. An example is that Hy-Glu-Thr-His-NH2 becomes Hy-DHis-DThr-DGlu-NH2. The EC50 of these reference compounds for ferroportin internalization/degradation was determined according to the FPN activity assay described above. These peptides served as control standards.
These values were determined as described herein.

Setting [4] is: Table 2A, 20 μM in SGF with pepsin, pH 1.2, 37° C., percent in brackets not explained.
Setting [5] is: Table 2A, 20 μM in FaSSIF with 1% pancreatin, 37° C., percent in brackets not explained.
The mark [6] stands for this setting: Table 2C, class symbols, read-out: FPN IC50.
Setting [7] is: read-out: T47D IC50, Table 2C, class symbols.
Setting [8] is: Table 2C, percent in brackets on next line not explained.
Where [9] appears, read: Table 2C, numeric values of reference compounds, read-out: FPN IC50.

For orientation: IC50 means the point on the concentration scale where inhibition reaches its midpoint. Take “Isovaleric Acid-E-T-H-[Dpa]-P-[Cys]-I-[(D)Lys]-[bhPhe]-[Lys(2Peg11′_Palm)]-[(D)Lys]-[Cys]-NH2 [Compound 3]”: in data set [1] (setting [4]), the “SGF Half life” value is more than 700 min. Moreover, in data set [2] (setting [5]), the “SIF Half life” value is listed as more than 750 min. For the same substance, the half-inhibitory concentration (IC50) in data set [3] (read-out: IC50: T47D Internalization MSA) came to 6.69 nM.

As to “Isovaleric Acid-E-T-H-[Dpa]-P-[Cys]-I-[(D)Lys]-[bhPhe]-[Lys(2Peg11′_Palm)]-[Cys]-[(D)Lys]-NH2 [Compound 4]”, the “SGF Half life” value in data set [1] (setting [4]) was 624 min. The DC50 on human ferroportin (Table 2A, HEK293 cells expressing human ferroportin-GFP, at least 18 hours incubation, read-out: FPN EC50) is 17 nM.

“Isovaleric Acid-E-T-H—F—P-[Cys]-I-[(D)Lys]-F-[Lys(2Peg11′_Palm)]-K-[Cys]-NH2 [Compound 1]”: the “SGF Half life” value in data set [1] (setting [4]) was 6 min.

On to “Isovaleric acid-DTHFPCIKF-Lys[2Peg11′-Palm]-PRSKGCK—NH2 [2 (Ref-1)]”, for which, in data set [1] (setting [4]), the “SGF Half life (min)” value is listed as <15 (6%) min. The “SGF Half life” value in data set [1] (Table 2A, 20 μM in SGF with pepsin, pH 1.2, 37° C., percent in brackets not explained, listed as 2) is listed as 540 min. In data set [2] (setting [5]), the “SIF Half life (min)” value is listed as <15 (1%) min. Also, the “SIF Half life” value in data set [2] (Table 2A, 20 μM in FaSSIF with 1% pancreatin, 37° C., percent in brackets not explained, listed as 2) is on record as 84 min.

“[Isovaleric Acid]-E-T-L-[Dpa]-P—C—I-[(D)Lys]-[bhPhe]-[Lys(Ahx_Palm)]-[(D)Lys]-C—NH2 [Compound 618]”: the DC50 at human ferroportin (setting [6]) lay within 101 to 500 nM. For the same substance, the 50% inhibitory concentration (IC50) in data set [3] (setting [7]) is 101 to 500 nM.

Turning to “[Isovaleric Acid]-E-T-[2Pal]-[Dpa]-P—C—I-[(D)Lys]-[bhPhe]-[Lys(PEG12_Palm)]-R—C—NH2 [REF2]”, in data set [1] (setting [8]), the “SGF Half life” value is recorded as 26 min. For the same substance, the DC50 on human ferroportin (setting [9]) stood at 13 nM. Moreover, the “SIF Half life” value in data set [2] (setting [8]) was less than 15 min.

“[Isovaleric Acid]-E-T-[3Pal]-[Dpa]-P—C—I-[(D)Lys]-[bhPhe]-[Lys(PEG12_Palm)]-R—C—NH2 [Compound 620]”: at human ferroportin (setting [6]), the DC50 was 31 to 100 nM. Besides, the IC50 in data set [3] (setting [7]) was in the range of 11 to 100 nM.

Take “[Isovaleric Acid]-E-T-[3Pal]-[Dpa]-P—C—I-[(D)Lys]-[bhPhe]-[Lys(PEG12_Palm)]-R—C—NH2 [REF1]”: the “SGF Half life” value in data set [1] (setting [8]) is listed as less than 15 min. Also, the DC50 at human ferroportin (setting [9]) was found to be 30 nM. In data set [2] (setting [8]), the “SIF Half life” value was less than 15 min.

Consider “[Isovaleric Acid]-E-T-[Dab]-[Dpa]-P—C—I-[(D)Lys]-[bhPhe]-[Lys(PEG12_Palm)]-R—C—NH2 [Compound 602]”, for which the DC50 at human ferroportin (setting [6]) was in the range of 31 to 100 nM. In data set [3] (setting [7]), the IC50 lay within 1 to 10 nM.

For “[Isovaleric Acid]-E-T-[Dap]-[Dpa]-P—C—I-[(D)Lys]-[bhPhe]-[Lys(PEG12_Palm)]-R—C—NH2 [Compound 603]”, the DC50 on human ferroportin (setting [6]) was more than 500 nM. Moreover, in data set [3] (setting [7]), the IC50 lay in the range of 11 to 100 nM.

As to “[Isovaleric Acid]-E-T-[N—MeHis]-[Dpa]-P—C—I-[(D)Lys]-[bhPhe]-[Lys(Ahx_Palm)]-[(D)Lys]-C—NH2 [Compound 616]”, the DC50 on human ferroportin (setting [6]) lay within 31 to 100 nM. Also, the half-maximal inhibitory concentration (IC50) in data set [3] (setting [7]) was 11 to 100 nM.

“[Isovaleric Acid]-E-T-[Orn]-[Dpa]-P—C—I-[(D)Lys]-[bhPhe]-[Lys(PEG12_Palm)]-R—C—NH2 [Compound 604]”: the DC50 on human ferroportin (setting [6]) is 1 to 30 nM. For the same substance, the IC50 in data set [3] (setting [7]) fell in the range of 1 to 10 nM.

As to “[Isovaleric Acid]-E-[(D)Asp]-H-[Dpa]-P—C—I-[(D)Lys]-[bhPhe]-[Lys(PEG12_Palm)]-R—C—NH2 [Compound 607]”, the DC50 at human ferroportin (setting [6]) is 1 to 30 nM. The half-maximal inhibitory concentration (IC50) in data set [3] (setting [7]) lay within 1 to 10 nM.

As for “[Isovaleric Acid]-E-[Dab]-H-[Dpa]-P—C—I-[(D)Lys]-[bhPhe]-[Lys(PEG12_Palm)]-[(D)Lys]-C—NH2 [Compound 610]”, on human ferroportin (setting [6]), the DC50 was in the range of 31 to 100 nM. Also, in data set [3] (setting [7]), the IC50 lay within 1 to 10 nM.

As to “[Isovaleric Acid]-E-[Dap]-H-[Dpa]-P—C—I-[(D)Lys]-[bhPhe]-[Lys(PEG12_Palm)]-R—C—NH2 [Compound 606]”, at human ferroportin (setting [6]), the DC50 was in the range of 31 to 100 nM. Further, in data set [3] (setting [7]), the IC50 lay within 11 to 100 nM.
